Laboratory results taken from US20200390128A1 (Lennham Pharmaceuticals, Inc., priority 2019, published 2020).

Legend:
[1] = Brain concentrations and brain pharmacokinetics after a single oral (gavage) dose in fasted male Sprague-Dawley rats, LC-MS/MS; type: in vivo; conditions: oral gavage 2 mg/kg
in vivo = conditions: male, Sprague-Dawley, rat, plasma, po, 2 mg/kg
[2] = Plasma pharmacokinetics after a single oral (gavage) dose in fasted male Sprague-Dawley rats, LC-MS/MS; conditions: oral gavage 2 mg/kg;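 note: plasma from heparinized blood sampled up to 14 h post dose, three rats per timepoint, parameters by non-compartmental analysis of mean concentration-time data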
[3] = 1 hour post dose, individual fasted male Sprague Dawley rats
[4] = 4 hour post dose, individual fasted male Sprague Dawley rats
[5] = 8 hour post dose, individual fasted male Sprague Dawley rats
[6] = 14 hour post dose, individual fasted male Sprague Dawley rats
[7] = male, Sprague-Dawley, rat, brain, po, 2 mg/kg, 1 hour post dose, individual fasted male Sprague Dawley rats, read-out: Concentration in brain, individual animal
[8] = male, Sprague-Dawley, rat, brain, po, 2 mg/kg, 4 hour post dose, individual fasted male Sprague Dawley rats, read-out: Concentration in brain, individual animal

Structure (SMILES) | Concentration in brain, individual animal [1, 3] | Concentration in brain, individual animal [1, 4] | Concentration in brain, individual animal [1, 5] | Concentration in brain, individual animal [1, 6] | concentration at 1 h [1, 7] | concentration at 4 h [1, 8] | Concentration in plasma, individual animal ([2]; 0.25 hr post dose) | Concentration in plasma, individual animal ([2]; 0.5 hr post dose) | Concentration in plasma, individual animal ([2]; 2 hr post dose) | Concentration in plasma, individual animal ([2]; 3 hr post dose) | Concentration in plasma, individual animal ([2]; 4 hr post dose) | Concentration in plasma, individual animal ([2]; 6 hr post dose) | Concentration in plasma, individual animal ([2]; 8 hr post dose) | Concentration in plasma, individual animal ([2]; 10 hr post dose) | Concentration in plasma, individual animal ([2]; 12 hr post dose) | Concentration in plasma, individual animal ([2]; 14 hr post dose) | further results
Cn1c(=O)c2c(ncn2C)n(C)c1=O [Caffeine, reference compound] | 1940 ng/g and 1780 ng/g | 1200 ng/g and 1290 ng/g | 715 ng/g and 672 ng/g and 271 ng/g | 84 ng/g and 80 ng/g and 23.8 ng/g | 2010 ng/g | 1140 ng/g | 2250 ng/mL and 2670 ng/mL and 2350 ng/mL | 2460 ng/mL (2×) and 2300 ng/mL | 2080 ng/mL and 2030 ng/mL and 2090 ng/mL | 2100 ng/mL and 1970 ng/mL and 2020 ng/mL | 1710 ng/mL and 1800 ng/mL and 1950 ng/mL | 1470 ng/mL and 1310 ng/mL and 816 ng/mL | 1150 ng/mL and 916 ng/mL and 480 ng/mL | 439 ng/mL and 382 ng/mL and 212 ng/mL | 231 ng/mL and 194 ng/mL and 87.7 ng/mL | 136 ng/mL and 117 ng/mL and 38.2 ng/mL | concentration at 6 h (in vivo): 1200 ng/mL
[2H]C([2H])([2H])n1c(=O)c2c(ncn2C([2H])([2H])[2H])n(C([2H])([2H])[2H])c1=O [Compound D9-Caffeine, D9-caffeine] | 1370 ng/g and 1670 ng/g | 1730 ng/g and 1630 ng/g | 1070 ng/g and 1110 ng/g | 414 ng/g and 509 ng/g | 1570 ng/g | 1570 ng/g | 1730 ng/mL and 1480 ng/mL and 1940 ng/mL | 1680 ng/mL and 1520 ng/mL and 2030 ng/mL | 2400 ng/mL and 2360 ng/mL and 2260 ng/mL | 2330 ng/mL and 2440 ng/mL and 2300 ng/mL | 2350 ng/mL and 2250 ng/mL and 2200 ng/mL | 1850 ng/mL and 1740 ng/mL and 1790 ng/mL | 1670 ng/mL and 1460 ng/mL and 1520 ng/mL | 1160 ng/mL and 1170 ng/mL and 1300 ng/mL | 910 ng/mL and 821 ng/mL and 959 ng/mL | 633 ng/mL and 643 ng/mL and 770 ng/mL | concentration at 8 h ([1]; male, Sprague-Dawley, rat, brain, po, 2 mg/kg, 8 hour post dose, fasted male Sprague-Dawley rats, n = 3/time point, read-out: Concentration in brain, Mean): 1150 ng/g; concentration at 8 h ([1]; male, Sprague-Dawley, rat, brain, po, 2 mg/kg, 8 hour post dose, individual fasted male Sprague Dawley rats, read-out: Concentration in brain, individual animal): 1280 ng/g; concentration at 14 h ([1]; male, Sprague-Dawley, rat, brain, po, 2 mg/kg, 14 hour post dose, individual fasted male Sprague Dawley rats, read-out: Concentration in brain, individual animal): 465 ng/g; concentration at 10 h (in vivo): 1210 ng/mL

Where “and” joins values, the source holds several entries; their conditions need not be identical. Identical values can stand only once. Like-named read-outs stand apart in the source and are kept apart here.
